Biological target: DLL4-AP (amino acid 1-404 of DLL4 fused to human placenta alkaline phosphatase) (human, UniProt P05187 23-511)
Assay: blocking ELISA: antibody titrated against DLL4-AP binding to coated rrNotch1-Fc

Amino acid sequences for entries named in this document (tags omitted). Residues count along the entry.
UniProt P05187, 23-511: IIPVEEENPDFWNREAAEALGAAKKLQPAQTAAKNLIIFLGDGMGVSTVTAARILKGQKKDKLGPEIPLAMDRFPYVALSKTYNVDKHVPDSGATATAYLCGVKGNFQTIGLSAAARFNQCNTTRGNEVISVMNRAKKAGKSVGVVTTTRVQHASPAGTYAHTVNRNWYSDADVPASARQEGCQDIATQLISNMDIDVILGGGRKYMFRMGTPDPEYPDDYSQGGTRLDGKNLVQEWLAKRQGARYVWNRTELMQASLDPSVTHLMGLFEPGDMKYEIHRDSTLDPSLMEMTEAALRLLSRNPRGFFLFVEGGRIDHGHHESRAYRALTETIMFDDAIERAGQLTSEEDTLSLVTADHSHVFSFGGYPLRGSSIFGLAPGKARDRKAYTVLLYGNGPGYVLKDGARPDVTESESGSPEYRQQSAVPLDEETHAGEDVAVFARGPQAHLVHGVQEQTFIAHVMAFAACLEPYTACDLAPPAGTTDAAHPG

- IC50: ~12 nM
B1: anti-DLL4 Mab YW26.82 (antibody, V domains shown)
VH: EVQLVESGGGLVQPGGSLRLSCAASGFTFTDNWISWVRQAPGKGLEWVGYISPNSGFTYYADSVKGRFTISADTSKNTAYLQMNSLRAEDTAVYYCARDNFGGYFDYWGQGTLVTVSS
VL: DIQMTQSPSSLSASVGDRVTITCRASQDVSTAVAWYQQKPGKAPKLLIYSASFLYSGVPSRFSGSGSGTDFTLTISSLQPEDFATYYCQQSYTGTVTFGQGTKVEIK

— US20100129356A1 (Genentech, published 2010)
